Source: publication PMC4938799, “LD Motif Recognition by Talin: Structure of the Talin-DLC1 Complex” (Structure(London, England:1993), 2016)

Target: T1, talin R8 domain
T1 construct: talin rod domain R8 (four-helix bundle), isolated domain used 15N-labelled for NMR; Construct limits, host and species are probably in the Supplemental Experimental Procedures; also called [15N]talin R8 domain
Experiment: NMR titration; KD fitted from 1H,15N-HSQC chemical-shift changes; 0.1 mM 15N talin R8, peptide/protein ratios 0.1 to 8; 298 K, 20 mM sodium phosphate pH 6.5, 50 mM NaCl
Settings: both partners purified

Kd: 3.5 µM
Binder: SSEDIDQMFSTLLGEMDLLTQSLGVDT [RIAM peptide (talin binding site)]
